The record followed here is US8658646B2, “Pyrrolopyrazine kinase inhibitors” (Hoffmann-LaRoche Inc., priority 2011, dated 2014).

Protein sequences, listed by entry. Tags and fused reporters are not part of them. Residues count along the entry.
UniProt P52333, 822-1111 limits assumed: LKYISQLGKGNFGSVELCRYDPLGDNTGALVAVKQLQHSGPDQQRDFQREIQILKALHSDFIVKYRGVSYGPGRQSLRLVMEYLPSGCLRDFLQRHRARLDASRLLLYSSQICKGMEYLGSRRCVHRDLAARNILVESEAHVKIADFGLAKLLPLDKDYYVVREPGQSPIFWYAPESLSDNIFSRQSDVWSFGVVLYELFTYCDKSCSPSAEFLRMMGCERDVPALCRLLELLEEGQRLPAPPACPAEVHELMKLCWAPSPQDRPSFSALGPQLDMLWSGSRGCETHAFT

The target in this test is T1, JAK3: Recombinant human kinase domain (Homo sapiens, UniProt P52333).
T1 construct: JAK3: Recombinant human kinase domain from Millipore (Cat #14-629) or prepared; purchased Millipore 14-629
Nature of the test: Determination of IC50 of Janus Kinase (JAK) inhibition, radioactive end-point 33P-ATP assay, JAK3. As to conditions: ATP 1.5 uM, peptide 50 uM, 20 minutes, read-out: JAK3-INHIB-DR/v1~NO ADDITIVE~Enzyme_Conc = 100. The test is classed as biochemical.

Each structure is given as a SMILES string.

With `C[C@@H](NC(=O)c1c[nH]c2ncc(-c3nn(C)c4ccccc34)nc12)C(=O)N1CC(C#N)C1` [Example I-7, 2-(1-Methyl-1H-indazol-3-yl)-5H-pyrrolo[2,3-b]pyrazine-7-carboxylic acid [(R)-2-(3-cyano-azetidin-1-yl)-1-methyl-2-oxo-ethyl]-amide], the IC50 stood at 1.12 nM.

`CC[C@@H](NC(=O)c1c[nH]c2ncc(-c3nn(C)c4cc(Cl)ccc34)nc12)C(=O)N1CC(C#N)C1` [Example I-20, 2-(6-Chloro-1-methyl-1H-indazol-3-yl)-5H-pyrrolo[2,3-b]pyrazine-7-carboxylic acid [(R)-1-(3-cyano-azetidine-1-carbonyl)-propyl]-amide]: the IC50 came out at 0.4 nM. In the case of `C[C@@H](NC(=O)c1c[nH]c2ncc(-n3ncc4cc(Cl)ccc43)nc12)C(=O)N1CC(C#N)C1` [Example I-69, 2-(5-Chloro-indazol-1-yl)-5H-pyrrolo[2,3-b]pyrazine-7-carboxylic acid [(R)-2-(3-cyano-azetidin-1-yl)-1-methyl-2-oxo-ethyl]-amide] it was 4.61 nM; in that of `C[C@@H](NC(=O)c1c[nH]c2ncc(-c3nn(C)c4cc(Cl)cc(F)c34)nc12)C(=O)N1CC(C#N)C1` [Example I-124, 2-(6-Chloro-4-fluoro-1-methyl-1H-indazol-3-yl)-5H-pyrrolo[2,3-b]pyrazine-7-carboxylic acid [(R)-2-(3-cyano-azetidin-1-yl)-1-methyl-2-oxo-ethyl]-amide], 1.12 nM. In the case of `C[C@@H](NC(=O)c1c[nH]c2ncc(-c3ncn4cc(F)cc(F)c34)nc12)C(=O)N1CC(C#N)C1` [Example I-33, 2-(6,8-Difluoro-imidazo[1,5-a]pyridin-1-yl)-5H-pyrrolo[2,3-b]pyrazine-7-carboxylic acid [(R)-2-(3-cyano-azetidin-1-yl)-1-methyl-2-oxo-ethyl]-amide] it was 0.975 nM; in that of `C[C@@H](NC(=O)c1c[nH]c2ncc(-c3cnc4cc(Cl)ccn34)nc12)C(=O)N1CC(C#N)C1` [Example I-221, 2-(7-Chloro-imidazo[1,2-a]pyridin-3-yl)-5H-pyrrolo[2,3-b]pyrazine-7-carboxylic acid [(R)-2-(3-cyano-azetidin-1-yl)-1-methyl-2-oxo-ethyl]-amide], 2.48 nM. On to `C[C@@H](NC(=O)c1c[nH]c2ncc(-c3nn(C)c4cc(C5CC5)ccc34)nc12)C(=O)N1CC(C#N)C1` [Example I-17, 2-(6-Cyclopropyl-1-methyl-1H-indazol-3-yl)-5H-pyrrolo[2,3-b]pyrazine-7-carboxylic acid [(R)-2-(3-cyano-azetidin-1-yl)-1-methyl-2-oxo-ethyl]-amide], for which the IC50 stood at 2.86 nM. With `C[C@@H](NC(=O)c1c[nH]c2ncc(-c3cn(C)c4cc(Cl)ccc34)nc12)C(=O)N1CC(C#N)C1` [Example I-29, 2-(6-Chloro-1-methyl-1H-indol-3-yl)-5H-pyrrolo[2,3-b]pyrazine-7-carboxylic acid [(R)-2-(3-cyano-azetidin-1-yl)-1-methyl-2-oxo-ethyl]-amide], the IC50 was found to be 0.81 nM.

For `Cn1nc(-c2cnc3[nH]cc(C(=O)N[C@@H](C(=O)N4CC(C#N)C4)C(C)(C)C)c3n2)c2ccc(Cl)cc21` [Example I-43, 2-(6-Chloro-1-methyl-1H-indazol-3-yl)-5H-pyrrolo[2,3-b]pyrazine-7-carboxylic acid [(R)-1-(3-cyano-azetidine-1-carbonyl)-2,2-dimethyl-propyl]-amide], the IC50 was 0.63 nM.

Take `Cn1nc(-c2cnc3[nH]cc(C(=O)N[C@@H](C(=O)N4CC(C#N)C4)C4CC4)c3n2)c2ccc(Cl)cc21` [Example I-21, 2-(6-Chloro-1-methyl-1H-indazol-3-yl)-5H-pyrrolo[2,3-b]pyrazine-7-carboxylic acid [(R)-2-(3-cyano-azetidin-1-yl)-1-cyclopropyl-2-oxo-ethyl]-amide]: the IC50 turned out to be 0.285 nM. `C[C@@H](NC(=O)c1c[nH]c2ncc(-c3ncn4cc(F)ccc34)nc12)C(=O)N1CC(C#N)C1` [Example I-32, 2-(6-Fluoro-imidazo[1,5-a]pyridin-1-yl)-5H-pyrrolo[2,3-b]pyrazine-7-carboxylic acid [(R)-2-(3-cyano-azetidin-1-yl)-1-methyl-2-oxo-ethyl)-amide]: the IC50 came to 0.26 nM. `COc1ccc2c(-c3cnc4[nH]cc(C(=O)N[C@H](C)C(=O)N5CC(C#N)C5)c4n3)nn(C)c2c1` [Example I-84, 2-(6-Methoxy-1-methyl-1H-indazol-3-yl)-5H-pyrrolo[2,3-b]pyrazine-7-carboxylic acid [(R)-2-(3-cyano-azetidin-1-yl)-1-methyl-2-oxo-ethyl]-amide]: the IC50 came out at 0.735 nM.
